# This is a selection; strong and weak results do not stand in their true shares. The source made the active and inactive calls.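 The calls were made as follows: active = activation above a cutoff set at the run's mean compound activation plus 3 SD (cut at about 39% in these data); inactive = the rest.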
# The chains behind the UniProt entries cited, without tags or fusion partners.
# UniProt Q96RJ0, whole entry: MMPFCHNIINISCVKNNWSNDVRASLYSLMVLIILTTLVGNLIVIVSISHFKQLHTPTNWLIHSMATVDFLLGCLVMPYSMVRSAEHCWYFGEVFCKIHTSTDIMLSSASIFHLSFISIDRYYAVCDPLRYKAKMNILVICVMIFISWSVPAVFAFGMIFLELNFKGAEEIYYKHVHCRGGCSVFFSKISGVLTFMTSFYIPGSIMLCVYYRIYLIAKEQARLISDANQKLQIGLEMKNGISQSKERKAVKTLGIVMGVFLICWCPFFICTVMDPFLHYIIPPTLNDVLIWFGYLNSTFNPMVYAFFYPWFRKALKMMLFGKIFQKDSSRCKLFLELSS
# Target: Trace amine-associated receptor 1 (Homo sapiens) (UniProt Q96RJ0)
# Experiment: activators of TAAR1 calcium signal, triplicate retest – Fluo-8 calcium fluorescence, CHO RD-HGA16 cells, confirmation (AID 651783);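 also: promiscuous G-alpha-16 overexpression reroutes TAAR1 signalling from cAMP to calcium; peak fluorescence divided by basal pre-compound fluorescence per well; 0% = DMSO wells and 100% = phenethylamine at EC100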
# Conditions: CHO RD-HGA16 TAAR1, Fluo-8 calcium fluorescence; at 3 µM; stronger effect = higher value; scaled: DMSO 0%, maximal phenethylamine 100%
row,Structure (SMILES),activation
1,CP(=O)(OC12CC3CC(CC(C3)C1)C2)OC12CC3CC(CC(C3)C1)C2,inactive: 28.4%

# Source: PubChem BioAssay AID651783 (The Scripps Research Institute Molecular Screening Center, 2012)
